These are literature values, as cited in patent publication US20110288128A1.

Molecules are shown by their SMILES. Some compounds may have been tested in ways that are not shown here.

The conditions of data set [1]: SUFENTA and Actiq package inserts.
The conditions of data set [2]: Paradis et al. 2002.
The conditions of data set [3]: swallowed drug.

Regarding `CCC(=O)N(c1ccccc1)C1(COC)CCN(CCc2cccs2)CC1`, in data set [1], the protein binding is recorded as 91-93%. The pKa – broadly, the negative logarithm of the acid dissociation constant – in data set [2] is 8.01.
For the compound `CCC(=O)N(c1ccccc1)C1CCN(CCc2ccccc2)CC1`, in data set [3], the GI bioavailability is 30-40%. In addition, the pKa in data set [2] was 8.43.
